Only some compounds are listed: those with a hit (about 1.6% of all), similar ones and a draw of the others.
ARNT TACC3 PPI – ARNT/TACC3 interaction disruption | Q9Y6A5 | AlphaScreen His-ARNT PAS-B/GST-TACC3 binding, luminescence; TACC3 fragment carries E629A point mutation | inhibition, % at 9.99 µM | 390,000 tested, 0.66% active;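 active = mean inhibition of replicates at least 50% and at least half of replicates each reaching 50%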;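 note: 0% = complete ARNT plus TACC3 wells and 100% = ARNT alone without TACC3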
Vif inh – HIV Vif inhibition; HEK293T cells, Vif self-association by quenched fluorescence, imaging, 24 h; inhibition, % at 7.49 µM; 340,000 tested, 0.35% active; AID 602346; in the data active = inhibition above about 50%, passing the limit was not always enough
UUG fidelity – modulators of start codon recognition fidelity in yeast. S. cerevisiae UUG-firefly luciferase reporter, luminescence/redox ratio. activity score, % at 18.7 µM. 0.13% of 350,000 active. AID 602363;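 active = replicate mean at a twofold rise or more, about +100% in these data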;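 also: firefly luciferase made from a UUG start codon reports start codon fidelity; reporter light over untreated wells divided by growth signal over untreated wells; some hits fall short of that in this replicate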
CAL PDZ FP-1 – blocks peptide binding to the human CAL PDZ domain; Q9HD26; purified CAL PDZ, TMR-peptide fluorescence polarization, 1 h; inhibition, % at 24.9 µM; 300,000 tested, 0.92% active;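 active = mean inhibition of at least 30% with at least half of replicates also reaching 30%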;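 note: 0% = DMSO neutral control and 100% = excess unlabeled competitor peptide PRC23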
CAL PDZ FP-2 – blocks peptide binding to human CAL PDZ domain | inhibition, % at 20 µM | AID 504414 | purified CAL PDZ, TMR-peptide fluorescence polarization, 1 h | 330,000 tested, 0.02% active;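 active = highest replicate inhibition of at least 40%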;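 note: plate controls were DMSO neutral control wells for no effect and unlabeled competitor peptide control wells for full effect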
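material = purified tagged CAL PDZ domain construct (CerCALP) | buffer or medium = sodium phosphate/NaCl buffer pH 7.4 with TCEP, IgG, Thesit | reagent = TMR-labelled reporter peptide T*-PRC34 bound in PDZ groove | incubation = 1 h room-temperature incubation prior to read | measured by = fluorescence polarization (mP) | evaluation = percent inhibition from loss of millipolarization | control set = unlabelled peptide and DMSO controls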
PglD inh – PglD (C. jejuni) enzyme inhibition; purified PglD enzyme, DTNB colorimetric CoA detection; inhibition, % at 12.5 µM; 360,000 tested, 0.098% active; AID 602405; in the data active = inhibition above about 16%, passing the limit was not always enough
* marks the source's active call; other numbers are inactive results.

Results for CCCn1c(N)c(N(CCOC)C(=O)c2ccc(F)cc2F)c(=O)[nH]c1=O ?
ARNT TACC3 PPI: -2; Vif inh: -1; CAL PDZ FP-2: 0

How did CCCCn1c(N)c(N(CCOC)C(=O)c2cnc(C)cn2)c(=O)[nH]c1=O do in these assays?
ARNT TACC3 PPI: -1; UUG fidelity: -5; CAL PDZ FP-1: 38*; CAL PDZ FP-2: -2; PglD inh: 3

Results for CCCCCn1nc(C(=O)N(CC)c2c(N)n(CCCC)c(=O)[nH]c2=O)c2ccccc2c1=O ?
ARNT TACC3 PPI: -5; Vif inh: 22; UUG fidelity: -11; CAL PDZ FP-1: 45*; CAL PDZ FP-2: 4; PglD inh: 1

What do the screens show for `CCCCn1c(N)c(N(CCOC)C(=O)c2cnccn2)c(=O)[nH]c1=O`?
Vif inh: 8; UUG fidelity: -11; CAL PDZ FP-1: 0; CAL PDZ FP-2: 0; PglD inh: -6

What do the screens show for `CCCCn1nc(C(=O)N(CC(C)C)c2c(N)n(CCCC)c(=O)[nH]c2=O)c2ccccc2c1=O`?
ARNT TACC3 PPI: -2; UUG fidelity: -9; CAL PDZ FP-1: -2; CAL PDZ FP-2: -2; PglD inh: -5

What do the screens show for `CCCn1c(N)c(N(CCOC)C(=O)c2ccc([N+](=O)[O-])cc2Cl)c(=O)[nH]c1=O`?
ARNT TACC3 PPI: 2; Vif inh: 67*; UUG fidelity: -11; CAL PDZ FP-1: -5; CAL PDZ FP-2: -2; PglD inh: -4

Results for CCCCC1CCC(C(=O)N(CCOC)c2c(N)n(CC(C)C)c(=O)[nH]c2=O)CC1 (stereo not drawn) ?
Vif inh: 4; UUG fidelity: 3; CAL PDZ FP-1: 62*; CAL PDZ FP-2: 0; PglD inh: -5

What do the screens show for `COCCN(C(=O)C1CCC1)c1c(N)n(CC(C)C)c(=O)[nH]c1=O`?
ARNT TACC3 PPI: -1; Vif inh: -5; UUG fidelity: -19; CAL PDZ FP-1: -4; CAL PDZ FP-2: -1; PglD inh: -7

How did CC(C)NC(=O)N(C)C[C@@H]1Oc2ccc(NS(=O)(=O)c3ccc(F)cc3)cc2C(=O)N([C@H](C)CO)C[C@H]1C do in these assays?
UUG fidelity: -22

What do the screens show for `CN(C)C(=O)C[C@@H]1CC[C@H]2[C@@H](COc3ccc(NC(=O)C4CC4)cc3C(=O)N2C)O1`?
UUG fidelity: -9; PglD inh: -2

What do the screens show for `OC[C@H]1[C@@H](c2ccc(-c3cccnc3)cc2)[C@H]2CN(CC3CCOCC3)CCCCN21`?
ARNT TACC3 PPI: 10; UUG fidelity: -10; PglD inh: 0

Results for CCCCn1c(N)c(N(CCC(C)C)C(=O)CSc2nncn2-c2ccccc2)c(=O)[nH]c1=O ?
Vif inh: -4; CAL PDZ FP-1: 48*; CAL PDZ FP-2: -1

Results for Cc1ccc(-c2ccc3c(c2)O[C@@H](CN(C)Cc2ccc(C(=O)O)cc2)[C@@H](C)CN([C@@H](C)CO)S3(=O)=O)cc1 ?
ARNT TACC3 PPI: 2; UUG fidelity: 24; PglD inh: 2

What do the screens show for `C[C@@H]1CN([C@@H](C)CO)C(=O)Cc2cc(NS(=O)(=O)c3cn(C)cn3)ccc2O[C@@H]1CN(C)Cc1ccc(Cl)c(Cl)c1`?
ARNT TACC3 PPI: 9; UUG fidelity: 0; PglD inh: 3

Results for O=C(NC1CCCCC1)C12CC3CC(C1)CC(n1cncn1)(C3)C2 ?
ARNT TACC3 PPI: -7; Vif inh: -1; CAL PDZ FP-1: -4; CAL PDZ FP-2: -1

How did CC(NC(=O)C12CC3CC(C1)CC(n1cncn1)(C3)C2)C12CC3CC(CC(C3)C1)C2 (stereo not drawn) do in these assays?
ARNT TACC3 PPI: -3; Vif inh: -27; UUG fidelity: -19; CAL PDZ FP-1: 57*; CAL PDZ FP-2: 0; PglD inh: 9

Results for COc1cccc(CNC(=O)C(C)n2ccc3cc(S(=O)(=O)N4CCCC4)ccc32)c1 (stereo not drawn) ?
ARNT TACC3 PPI: -3; Vif inh: 10; UUG fidelity: 1; CAL PDZ FP-1: 42*; CAL PDZ FP-2: -1; PglD inh: 4

How did CN1C(=O)C(C)(C)c2cc(S(=O)(=O)N3CCCCCC3)ccc21 do in these assays?
ARNT TACC3 PPI: -4; Vif inh: 88*; UUG fidelity: -3; CAL PDZ FP-2: -1; PglD inh: -2

What do the screens show for `COc1ccc2cc(S(=O)(=O)N3CCCC3)ccc2c1`?
ARNT TACC3 PPI: 0; Vif inh: -4; UUG fidelity: -8; CAL PDZ FP-1: 81*; CAL PDZ FP-2: -1; PglD inh: -3

How did Cc1ccc(NC(=O)C2CCN(C(=O)[C@@H]3Cc4ccccc4CN3)CC2)cc1 do in these assays?
ARNT TACC3 PPI: 0; Vif inh: -7; UUG fidelity: -19; CAL PDZ FP-1: 7; CAL PDZ FP-2: 0; PglD inh: 4

Results for Cc1cc(C)cc(NC(=O)C2CCN(C(=O)[C@@H]3Cc4ccccc4CN3)CC2)c1 ?
ARNT TACC3 PPI: 4; Vif inh: -1; UUG fidelity: 96; CAL PDZ FP-1: 42*; CAL PDZ FP-2: -1; PglD inh: 0

Results for COc1cc(/C=C2\SC(=O)N(CCNC(=O)c3sc4cc(F)ccc4c3Cl)C2=O)cc(OC)c1OC ?
ARNT TACC3 PPI: -12; Vif inh: 63*; UUG fidelity: 4; CAL PDZ FP-1: 5; CAL PDZ FP-2: 0; PglD inh: 4

What do the screens show for `COc1cc(C(=O)NCC(=O)NCCN2C(=O)S/C(=C\c3ccccc3Cl)C2=O)cc(OC)c1OC`?
ARNT TACC3 PPI: 9; Vif inh: -2; UUG fidelity: -7; CAL PDZ FP-1: -2; CAL PDZ FP-2: -3; PglD inh: -4

What do the screens show for `Oc1c(CNc2ccccc2)cc(COCc2ccccc2)c2cccnc12`?
ARNT TACC3 PPI: 57*; Vif inh: 14; UUG fidelity: -48; CAL PDZ FP-1: -1; CAL PDZ FP-2: -1; PglD inh: -3

Results for O=S(=O)(c1ccccc1)N(CC(O)COc1ccccc1)c1ccccc1 (stereo not drawn) ?
ARNT TACC3 PPI: 11; Vif inh: 0; UUG fidelity: 9; CAL PDZ FP-1: 57*; CAL PDZ FP-2: 0; PglD inh: -6

Results for CCOc1c(C)cc(S(=O)(=O)NCc2ccccn2)c(C)c1C ?
ARNT TACC3 PPI: -2; Vif inh: -3; UUG fidelity: 0; CAL PDZ FP-1: 67*; PglD inh: 5

What do the screens show for `CCOc1ccc(S(=O)(=O)NCc2ccccn2)cc1NC(=O)c1ccccc1`?
ARNT TACC3 PPI: 4; Vif inh: 54*; CAL PDZ FP-1: -1; CAL PDZ FP-2: -2

How did CO[C@H]1CN(C)C(=O)c2ccc(NC(=O)Nc3cc(F)ccc3F)cc2OC[C@@H](C)NC[C@@H]1C do in these assays?
ARNT TACC3 PPI: -4; UUG fidelity: 17; PglD inh: 2

Sorted by count of non-hydrogen atoms (ascending): part of the list above
What do the screens show for `COc1ccc2cc(S(=O)(=O)N3CCCC3)ccc2c1`?
ARNT TACC3 PPI: 0; Vif inh: -4; UUG fidelity: -8; CAL PDZ FP-1: 81*; CAL PDZ FP-2: -1; PglD inh: -3

How did CN1C(=O)C(C)(C)c2cc(S(=O)(=O)N3CCCCCC3)ccc21 do in these assays?
ARNT TACC3 PPI: -4; Vif inh: 88*; UUG fidelity: -3; CAL PDZ FP-2: -1; PglD inh: -2

Results for O=S(=O)(c1ccccc1)N(CC(O)COc1ccccc1)c1ccccc1 (stereo not drawn) ?
ARNT TACC3 PPI: 11; Vif inh: 0; UUG fidelity: 9; CAL PDZ FP-1: 57*; CAL PDZ FP-2: 0; PglD inh: -6

From PubChem
